Literature values, collected in patent US20010046684A1, “Methods of structure-based drug design using MS/MNR” (priority 2000, published 2001).

Molecular target: T1, MMP-1 (Homo sapiens, UniProt P03956)
T1 sequence (P03956 100-469): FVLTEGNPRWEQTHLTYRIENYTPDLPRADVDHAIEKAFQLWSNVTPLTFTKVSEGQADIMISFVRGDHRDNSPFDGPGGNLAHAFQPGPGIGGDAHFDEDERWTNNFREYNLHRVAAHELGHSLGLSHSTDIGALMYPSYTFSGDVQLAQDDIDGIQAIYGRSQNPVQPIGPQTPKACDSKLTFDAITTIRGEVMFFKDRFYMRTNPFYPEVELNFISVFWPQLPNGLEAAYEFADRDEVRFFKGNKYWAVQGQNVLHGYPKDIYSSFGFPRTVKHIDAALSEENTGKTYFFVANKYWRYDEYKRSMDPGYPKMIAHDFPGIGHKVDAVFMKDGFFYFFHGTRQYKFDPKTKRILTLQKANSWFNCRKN
Conditions: Inhibitors of MMP-1; compounds having known affinities, previously tested; cited from earlier work

In the case of `COc1ccc(S(=O)(=O)N(Cc2cccnc2)[C@@H](C(=O)NO)C(C)C)cc1` [Compound 1, N2-(4-Methoxy-benzenesulfonyl)-N2-[(pyridin-3-yl)methyl]-N-hydroxy-D-valinamide], the IC50 is listed as 9 nM.
